The assay relates to fentanyl-induced analgesia in mice. The experiment in a line: Hot plate assay, block of fentanyl-induced analgesia. The settings on record: free naloxone 10 mg/kg, fentanyl 0.2 mg/kg.

For `C=CCN1CC[C@]23c4c5ccc(O)c4O[C@H]2C(=O)CC[C@@]3(O)[C@H]1C5` [free naloxone, naloxone], the “effect on fentanyl analgesia in hot plate assay” value is reported as “acutely block fentanyl (0.2 mg/kg) analgesia”.

(Values after patent US12433883B2, “Covalent modification and controlled delivery of mu opioid receptor antagonists” (Allegheny Singer Research Institute, priority 2019, dated 2025).)
